{
  "source": "patent US7081343B2",
  "about": "“Methods for identifying modulators of NF-KB activity” (The Regents of the University of California, priority 2001, dated 2006)",
  "system": "GFP-RelA",
  "test": "GFP-RelA epifluorescence localization in HeLa cells co-expressing HDAC3",
  "format": "cell-based, human",
  "conditions": "TSA 800 nM, 5 hours, FIG. 3I panel 4",
  "method": "To monitor potential effects of HDAC3 on the intracellular trafficking of RelA, green fluorescent protein-RelA fusion proteins (GFP-RelA) were prepared and expressed in HeLa cells in the presence and absence of HDAC3 (FIG. 3I). […] HDAC3 and GFP-RelA plasmid DNA was transfected at a 6:1 ratio to ensure that all GFP-RelA expressing cells also contained HDAC3. […] Numbers shown in the lower left corner of each panel represent the percentage of cells displaying the depicted phenotype derived from inspection of at least 200 transfected cells present in multiple microscopic fields.",
  "data": [
    {"smiles": "CC(/C=C/C(=O)NO)=C\\[C@@H](C)C(=O)c1ccc(N(C)C)cc1", "note": "[TSA, Trichostatin A]", "values": [
      {"measurement": "pattern of GFP-RelA expression in GFP-RelA and HDAC3 co-transfected cells", "result": "nuclear pattern of expression"}
    ]}
  ]
}
